# Reference: PubChem BioAssay AID894 (National Center for Advancing Translational Sciences (NCATS), 2007)
# The chains behind the UniProt entries cited, without tags or fusion partners.
# UniProt P15428, whole entry: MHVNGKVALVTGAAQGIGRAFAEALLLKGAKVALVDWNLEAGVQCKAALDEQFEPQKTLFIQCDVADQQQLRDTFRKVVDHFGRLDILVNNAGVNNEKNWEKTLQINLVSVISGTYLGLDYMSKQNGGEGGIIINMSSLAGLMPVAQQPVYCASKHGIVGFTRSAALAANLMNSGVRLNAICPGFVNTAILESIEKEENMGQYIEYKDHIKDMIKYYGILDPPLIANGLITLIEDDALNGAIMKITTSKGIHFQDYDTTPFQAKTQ
# Only a part is listed here, and it is no random draw. Results filed as inconclusive are left out. Active and inactive are the calls of the source. Calls come from the whole dose curve; as a rule, active = well fitted inhibition curve with a large enough effect (not every such curve was filed as active); inconclusive = small, poorly fitted or top-dose-only effect, or another doubt; inactive = no such curve, though single readings can be large or run the other way.
# Biological target: 15-hydroxyprostaglandin dehydrogenase [NAD(+)] (Homo sapiens) (UniProt P15428)
# Assay: qHTS Assay for Inhibitors of HPGD (15-Hydroxyprostaglandin Dehydrogenase); note: test concentration not given here
# Conditions: purified HPGD, NADH fluorescence kinetic, PGE2 substrate; stronger effect = lower value
# % is set by controls: 0 for no effect and ±100 for the full control effect.
row,Compound,"activity change, negative = inhibition"
1,NC1CCCCC1.NP(=O)(O)N(CCCl)CCCl,inactive: 0.0456%
2,N/C(=N\O)c1c(N)no[n+]1[O-],inactive: -7.34%
